Data reported in patent US20210230178A1, “TRIOXACARCIN ANALOGS AND DIMERS AS POTENT ANTICANCER AGENTS” (William Marsh Rice University, priority 2017, published 2021).
Only a part of the results on these compounds is given; other tests are left out.

Experiments:
[1] = test system: MES SA (human uterine sarcoma); experiment: In vitro cytotoxicity assay (72 hour killing assay, CellTiter-Glo), MES SA; details: read-out: IC50 MES SA, 50% inhibitory concentration against cell growth
[2] = test system: HEK 293T (human embryonic kidney cancer cell line); experiment: In vitro cytotoxicity assay (72 hour killing assay, CellTiter-Glo), HEK 293T; details: read-out: IC50 HEK 293T, 50% inhibitory concentration against cell growth
[3] = test system: MES SA DX (human uterine sarcoma cell line with marked multidrug resistance); experiment: In vitro cytotoxicity assay (72 hour killing assay, CellTiter-Glo), MES SA DX; details: read-out: IC50 MES SA DX, 50% inhibitory concentration against cell growth, multidrug resistant line

Substance	IC50 [1]	IC50 [2]	IC50 [3]
DC-45-A1	18.1 nM	14.9 nM	> 1000 nM
Trioxacarcin C	6.09 nM	5.25 nM	> 500 nM
